In US9775844B2, “Heterocyclic compounds and uses thereof” (Infinity Pharmaceuticals, Inc., priority 2014, dated 2017):
Where two headings read alike, the source gives them in different places. Blank lines part the entries; values can stand above or below the compound they belong to.

Amino acid sequences for entries named in this document (tags omitted). A change or cut given only in a name is not applied to a line headed by its entry.
UniProt O00329: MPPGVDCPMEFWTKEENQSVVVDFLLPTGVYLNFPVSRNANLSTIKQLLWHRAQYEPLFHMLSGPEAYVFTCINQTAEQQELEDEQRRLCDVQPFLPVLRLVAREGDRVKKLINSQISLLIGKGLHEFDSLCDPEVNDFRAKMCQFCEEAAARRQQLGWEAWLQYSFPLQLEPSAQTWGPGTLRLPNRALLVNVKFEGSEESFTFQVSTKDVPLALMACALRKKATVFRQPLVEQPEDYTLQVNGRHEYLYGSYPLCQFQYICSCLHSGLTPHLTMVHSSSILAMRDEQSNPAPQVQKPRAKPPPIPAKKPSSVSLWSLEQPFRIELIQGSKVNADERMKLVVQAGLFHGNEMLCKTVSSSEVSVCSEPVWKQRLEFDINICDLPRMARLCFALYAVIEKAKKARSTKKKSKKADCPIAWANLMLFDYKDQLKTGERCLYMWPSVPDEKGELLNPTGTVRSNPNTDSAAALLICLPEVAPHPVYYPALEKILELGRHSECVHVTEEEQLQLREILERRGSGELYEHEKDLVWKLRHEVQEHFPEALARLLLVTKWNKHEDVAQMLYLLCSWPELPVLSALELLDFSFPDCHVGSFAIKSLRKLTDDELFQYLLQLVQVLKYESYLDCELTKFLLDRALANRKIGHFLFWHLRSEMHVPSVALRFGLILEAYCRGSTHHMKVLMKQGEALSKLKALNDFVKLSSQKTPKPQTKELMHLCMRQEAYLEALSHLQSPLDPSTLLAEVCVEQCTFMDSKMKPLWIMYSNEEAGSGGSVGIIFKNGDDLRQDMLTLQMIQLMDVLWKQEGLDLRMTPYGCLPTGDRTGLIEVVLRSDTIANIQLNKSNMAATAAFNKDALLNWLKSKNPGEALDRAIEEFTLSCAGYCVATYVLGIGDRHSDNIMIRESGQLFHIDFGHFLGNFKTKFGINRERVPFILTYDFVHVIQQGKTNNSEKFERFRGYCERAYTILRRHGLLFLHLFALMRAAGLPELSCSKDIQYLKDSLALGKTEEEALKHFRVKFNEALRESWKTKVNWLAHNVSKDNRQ
UniProt P42336, whole entry H1047R: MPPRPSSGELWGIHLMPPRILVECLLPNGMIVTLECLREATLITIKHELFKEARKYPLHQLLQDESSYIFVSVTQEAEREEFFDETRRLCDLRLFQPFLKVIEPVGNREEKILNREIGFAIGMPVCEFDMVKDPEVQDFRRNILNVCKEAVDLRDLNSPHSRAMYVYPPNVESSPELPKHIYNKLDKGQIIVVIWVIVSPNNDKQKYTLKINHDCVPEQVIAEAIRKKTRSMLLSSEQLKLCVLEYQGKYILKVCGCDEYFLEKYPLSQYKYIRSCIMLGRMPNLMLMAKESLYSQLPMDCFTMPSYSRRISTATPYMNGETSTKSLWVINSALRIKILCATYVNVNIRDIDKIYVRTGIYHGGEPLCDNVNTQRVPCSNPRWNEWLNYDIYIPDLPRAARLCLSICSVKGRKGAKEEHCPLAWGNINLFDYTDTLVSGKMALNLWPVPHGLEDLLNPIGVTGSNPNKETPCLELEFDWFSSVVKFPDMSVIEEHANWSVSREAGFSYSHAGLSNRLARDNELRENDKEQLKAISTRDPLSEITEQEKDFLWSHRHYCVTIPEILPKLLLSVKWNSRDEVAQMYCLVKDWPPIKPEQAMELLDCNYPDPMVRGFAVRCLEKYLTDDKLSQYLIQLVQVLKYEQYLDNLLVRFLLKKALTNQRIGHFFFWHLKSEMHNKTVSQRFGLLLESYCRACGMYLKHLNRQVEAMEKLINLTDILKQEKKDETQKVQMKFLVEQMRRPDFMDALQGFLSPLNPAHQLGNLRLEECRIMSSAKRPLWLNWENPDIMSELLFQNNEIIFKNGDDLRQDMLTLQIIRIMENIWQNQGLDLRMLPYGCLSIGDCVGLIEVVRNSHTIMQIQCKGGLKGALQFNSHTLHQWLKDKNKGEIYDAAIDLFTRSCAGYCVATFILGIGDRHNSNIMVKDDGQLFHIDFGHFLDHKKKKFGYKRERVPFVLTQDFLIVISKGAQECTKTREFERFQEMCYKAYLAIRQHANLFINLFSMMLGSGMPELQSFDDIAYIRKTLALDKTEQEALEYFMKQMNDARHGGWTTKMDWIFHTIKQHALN
UniProt P42336, whole entry: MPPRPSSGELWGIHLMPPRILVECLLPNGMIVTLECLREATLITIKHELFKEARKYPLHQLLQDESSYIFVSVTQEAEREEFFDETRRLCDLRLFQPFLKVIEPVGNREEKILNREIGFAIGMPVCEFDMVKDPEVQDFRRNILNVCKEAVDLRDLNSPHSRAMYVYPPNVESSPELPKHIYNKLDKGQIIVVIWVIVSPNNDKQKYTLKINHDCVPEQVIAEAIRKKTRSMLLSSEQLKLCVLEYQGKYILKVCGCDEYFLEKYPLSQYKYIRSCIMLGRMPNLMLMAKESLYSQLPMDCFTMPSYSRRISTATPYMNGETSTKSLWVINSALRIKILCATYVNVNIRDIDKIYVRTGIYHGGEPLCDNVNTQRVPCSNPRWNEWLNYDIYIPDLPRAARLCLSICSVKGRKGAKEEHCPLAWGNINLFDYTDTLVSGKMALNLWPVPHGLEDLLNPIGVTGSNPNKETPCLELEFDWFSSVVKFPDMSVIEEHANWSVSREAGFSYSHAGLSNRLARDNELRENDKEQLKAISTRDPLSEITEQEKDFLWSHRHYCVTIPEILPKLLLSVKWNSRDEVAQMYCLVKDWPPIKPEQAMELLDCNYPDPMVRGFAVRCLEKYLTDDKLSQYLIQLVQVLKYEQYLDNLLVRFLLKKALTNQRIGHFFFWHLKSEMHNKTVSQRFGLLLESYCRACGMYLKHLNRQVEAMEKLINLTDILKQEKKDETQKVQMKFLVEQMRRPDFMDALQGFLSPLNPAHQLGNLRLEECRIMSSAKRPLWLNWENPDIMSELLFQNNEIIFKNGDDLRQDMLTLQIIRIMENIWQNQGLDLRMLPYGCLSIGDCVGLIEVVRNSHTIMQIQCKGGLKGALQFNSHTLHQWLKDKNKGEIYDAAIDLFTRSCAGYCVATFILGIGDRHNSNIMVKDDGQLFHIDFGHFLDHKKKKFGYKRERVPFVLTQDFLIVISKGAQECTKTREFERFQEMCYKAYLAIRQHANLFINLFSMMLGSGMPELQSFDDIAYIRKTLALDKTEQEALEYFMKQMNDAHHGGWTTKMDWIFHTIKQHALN
UniProt Q9JHG7: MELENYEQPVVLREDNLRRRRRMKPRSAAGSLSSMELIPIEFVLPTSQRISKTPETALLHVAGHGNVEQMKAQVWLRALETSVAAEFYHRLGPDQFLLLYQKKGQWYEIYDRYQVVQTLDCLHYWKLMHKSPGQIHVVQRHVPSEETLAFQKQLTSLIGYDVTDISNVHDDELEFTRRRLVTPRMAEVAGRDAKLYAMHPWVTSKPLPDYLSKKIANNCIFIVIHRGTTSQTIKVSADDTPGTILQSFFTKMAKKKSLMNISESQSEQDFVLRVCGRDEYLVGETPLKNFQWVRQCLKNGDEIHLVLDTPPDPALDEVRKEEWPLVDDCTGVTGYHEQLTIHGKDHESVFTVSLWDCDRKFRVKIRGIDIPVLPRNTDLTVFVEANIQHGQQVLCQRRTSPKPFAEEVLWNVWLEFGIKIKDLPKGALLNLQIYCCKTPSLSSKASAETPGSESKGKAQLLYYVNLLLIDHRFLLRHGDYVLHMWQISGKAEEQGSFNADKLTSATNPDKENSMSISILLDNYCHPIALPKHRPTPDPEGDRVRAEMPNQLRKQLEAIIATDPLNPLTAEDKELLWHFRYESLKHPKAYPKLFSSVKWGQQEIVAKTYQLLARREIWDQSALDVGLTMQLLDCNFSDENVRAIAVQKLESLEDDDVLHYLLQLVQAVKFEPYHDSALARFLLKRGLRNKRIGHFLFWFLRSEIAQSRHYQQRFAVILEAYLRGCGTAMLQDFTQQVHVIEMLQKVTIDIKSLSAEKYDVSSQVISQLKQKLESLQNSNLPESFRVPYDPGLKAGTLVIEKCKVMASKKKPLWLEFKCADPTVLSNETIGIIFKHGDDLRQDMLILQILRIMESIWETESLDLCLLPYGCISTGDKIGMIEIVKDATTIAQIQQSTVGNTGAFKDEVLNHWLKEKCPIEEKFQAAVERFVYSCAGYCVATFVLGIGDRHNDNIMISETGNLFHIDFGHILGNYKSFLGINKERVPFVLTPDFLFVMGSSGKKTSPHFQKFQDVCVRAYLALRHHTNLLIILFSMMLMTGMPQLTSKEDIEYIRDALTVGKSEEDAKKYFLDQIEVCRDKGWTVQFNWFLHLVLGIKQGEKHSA
UniProt P42338: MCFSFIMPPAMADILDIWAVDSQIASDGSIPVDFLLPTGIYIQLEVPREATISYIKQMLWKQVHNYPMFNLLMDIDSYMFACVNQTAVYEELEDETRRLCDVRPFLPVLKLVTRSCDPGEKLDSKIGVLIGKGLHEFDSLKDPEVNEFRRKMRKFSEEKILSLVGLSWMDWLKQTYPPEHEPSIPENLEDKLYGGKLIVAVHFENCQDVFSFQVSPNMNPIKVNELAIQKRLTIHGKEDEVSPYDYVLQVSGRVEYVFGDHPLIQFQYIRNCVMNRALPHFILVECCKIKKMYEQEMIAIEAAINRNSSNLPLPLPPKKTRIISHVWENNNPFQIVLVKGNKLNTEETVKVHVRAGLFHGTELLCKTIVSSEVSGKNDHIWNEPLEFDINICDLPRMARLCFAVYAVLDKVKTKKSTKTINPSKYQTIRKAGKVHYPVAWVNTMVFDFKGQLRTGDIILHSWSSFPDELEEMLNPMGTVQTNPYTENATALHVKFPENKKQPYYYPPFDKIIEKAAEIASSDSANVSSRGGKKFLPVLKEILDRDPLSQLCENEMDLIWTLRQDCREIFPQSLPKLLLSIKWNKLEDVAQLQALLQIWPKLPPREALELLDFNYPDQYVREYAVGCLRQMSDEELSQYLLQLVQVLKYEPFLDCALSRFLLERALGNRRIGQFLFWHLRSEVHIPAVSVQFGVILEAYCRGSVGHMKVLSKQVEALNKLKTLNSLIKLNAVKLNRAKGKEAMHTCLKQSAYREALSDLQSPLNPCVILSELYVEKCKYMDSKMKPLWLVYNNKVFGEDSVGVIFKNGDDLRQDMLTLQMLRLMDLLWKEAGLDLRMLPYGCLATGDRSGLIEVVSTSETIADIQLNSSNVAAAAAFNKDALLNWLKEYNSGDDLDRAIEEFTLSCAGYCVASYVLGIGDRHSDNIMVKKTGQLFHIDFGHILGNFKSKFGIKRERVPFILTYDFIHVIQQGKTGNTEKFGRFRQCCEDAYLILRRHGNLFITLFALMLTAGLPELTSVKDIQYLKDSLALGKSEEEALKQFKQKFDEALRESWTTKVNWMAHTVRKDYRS
UniProt P48736: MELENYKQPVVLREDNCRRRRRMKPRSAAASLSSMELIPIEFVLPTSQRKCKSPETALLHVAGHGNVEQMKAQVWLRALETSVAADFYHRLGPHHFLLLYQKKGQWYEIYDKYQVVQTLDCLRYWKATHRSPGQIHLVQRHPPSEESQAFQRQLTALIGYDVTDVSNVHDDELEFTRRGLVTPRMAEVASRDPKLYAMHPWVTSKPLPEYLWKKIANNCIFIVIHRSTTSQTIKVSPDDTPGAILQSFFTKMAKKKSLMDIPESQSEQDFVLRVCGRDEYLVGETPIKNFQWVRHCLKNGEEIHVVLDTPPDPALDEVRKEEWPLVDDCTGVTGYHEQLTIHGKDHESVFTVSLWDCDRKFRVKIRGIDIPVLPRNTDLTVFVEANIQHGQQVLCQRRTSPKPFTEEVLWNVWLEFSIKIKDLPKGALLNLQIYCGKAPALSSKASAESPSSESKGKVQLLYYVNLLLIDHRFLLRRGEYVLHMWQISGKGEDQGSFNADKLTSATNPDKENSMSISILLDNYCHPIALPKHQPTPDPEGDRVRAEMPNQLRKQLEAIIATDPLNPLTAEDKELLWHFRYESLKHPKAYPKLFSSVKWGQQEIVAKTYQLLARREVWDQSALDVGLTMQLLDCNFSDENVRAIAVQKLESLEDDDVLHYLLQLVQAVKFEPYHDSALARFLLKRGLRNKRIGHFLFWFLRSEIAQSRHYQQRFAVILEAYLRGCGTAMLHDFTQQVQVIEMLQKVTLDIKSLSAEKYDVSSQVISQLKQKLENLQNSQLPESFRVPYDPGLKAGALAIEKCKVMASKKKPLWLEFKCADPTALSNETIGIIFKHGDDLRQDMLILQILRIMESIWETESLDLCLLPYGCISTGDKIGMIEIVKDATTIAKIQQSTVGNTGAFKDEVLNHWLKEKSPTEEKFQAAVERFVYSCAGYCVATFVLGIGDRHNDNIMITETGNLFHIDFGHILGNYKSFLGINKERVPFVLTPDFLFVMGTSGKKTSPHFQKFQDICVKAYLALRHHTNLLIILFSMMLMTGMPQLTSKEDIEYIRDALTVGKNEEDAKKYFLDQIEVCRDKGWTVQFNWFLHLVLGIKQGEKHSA

How the values were obtained:
PI3K δ = PI3K δ (Homo sapiens (Human), UniProt O00329); experiment: PI3-Kinase Promega ADP-Glo Max assay; type: biochemical
PI3K-δ in RAJI cells = PI3K-δ in RAJI cells (Homo sapiens (Human), UniProt O00329); experiment: RAJI p110 δ assay (PI3K-δ selective cellular assay, phospho-AKT)
PI3K-α in SKOV-3 cells = PI3K-α in SKOV-3 cells (Homo sapiens (Human), UniProt P42336, H1047R); experiment: PI3K-α selective cellular assay (phospho-AKT); type: cell-based
From the text: A compound's ability in selectively inhibiting PI3K-α can be assessed using SKOV-3 cells, i.e., human ovarian carcinoma cell line. Briefly, SKOV-3 cells, in which mutant PI3Kα is constitutively active, can be treated with test compounds.

[1] = target: PI3K-γ in RAW264.7 macrophages (Mus musculus (Mouse), UniProt Q9JHG7); experiment: Raw264.7 p110 γ assay (PI3K-γ selective cellular assay, C5a-stimulated phospho-AKT); conditions: Raw264.7 p110 γ assay IC50
PI3K α = PI3K α (Homo sapiens (Human), UniProt P42336); experiment: PI3-Kinase Promega ADP-Glo Max assay; type: biochemical
PI3K β = PI3K β (Homo sapiens (Human), UniProt P42338); experiment: PI3-Kinase Promega ADP-Glo Max assay; type: biochemical
PI3K γ = PI3K γ (Homo sapiens (Human), UniProt P48736); experiment: PI3-Kinase Promega ADP-Glo Max assay
[2] = RAJI p110 δ assay IC50, phospho-AKT

Structure (SMILES): C[C@H](NC(=O)c1c(N)nn2cccnc12)c1cc2cccc(C#Cc3cnn(C)c3)c2c(=O)n1-c1ccccc1 [Compound 4]
IC50 (PI3K δ): 5000 to 10000 nM
IC50 (PI3K-δ in RAJI cells; [2]): 100 to 500 nM

Structure (SMILES): C[C@H](NC(=O)c1c(N)nn2cccnc12)c1cc2cccc(/C=C/c3cnn(C)c3)c2c(=O)n1-c1ccccc1 [Compound 52]
IC50 (PI3K δ): 5000 to 10000 nM
IC50 (PI3K-δ in RAJI cells; [2]): 500 to 1000 nM

Structure (SMILES): C[C@H](NC(=O)c1c(N)nn2cccnc12)c1cc2cccc(C#Cc3cnn(C)c3)c2c(=O)n1-c1ccccc1 [Compound BB]
IC50 (PI3K-δ in RAJI cells; Cellular IC50 δ): 197 nM
IC50 (PI3K-α in SKOV-3 cells): 873 nM

Structure (SMILES): C[C@H](NC(=O)c1c(N)nn2cccnc12)c1cc2cccc(C#Cc3cnn(C)c3C(F)(F)F)c2c(=O)n1-c1ccccc1 [Compound 69]
IC50 [1]: 100 to 10000 nM
IC50 (PI3K α): 5000 to 10000 nM
IC50 (PI3K β): 5000 to 10000 nM

Structure (SMILES): C[C@H](NC(=O)c1c(N)nn2cccnc12)c1cc2cccc(/C=C\c3cnn(C)c3)c2c(=O)n1-c1ccccc1 [Compound 53]
IC50 (PI3K δ): 5000 to 10000 nM
IC50 (PI3K-δ in RAJI cells; [2]): 500 to 1000 nM

IC50 (PI3K γ): 1 to 100 nM
Structure (SMILES): C[C@H](NC(=O)c1c(N)nn2cccnc12)c1cc2cccc(C#Cc3ccc(=O)[nH]c3)c2c(=O)n1-c1ccccc1 [Compound 33]

IC50 (PI3K δ): 5000 to 10000 nM
IC50 (PI3K α; read-out: PI3K α IC50): 5000 to 10000 nM
Structure (SMILES): [2H]c1c([2H])c([2H])c(-n2c([C@H](C)NC(=O)c3c(N)nn4cccnc34)cc3cccc(C#Cc4cnn(C)c4)c3c2=O)c([2H])c1[2H] [Compound 110]

IC50 (PI3K γ): 1 to 100 nM
Structure (SMILES): C[C@H](NC(=O)c1c(N)nn2cccnc12)c1cc2cccc(C#Cc3cn(C)cn3)c2c(=O)n1-c1ccccc1 [Compound 81]
